Holding throughout (type): protein-complex assay
Assay [1] has as its target Casein kinase II (Homo sapiens, UniProt P19784+P67870+P68400, I174A). The assay is described as follows: Inhibition of CK2 I174A mutant.
In assay [2] the target is Casein kinase II (Homo sapiens, UniProt P19784+P67870+P68400, I174A/V66A). The assay is described as follows: Inhibition of CK2 V66A, I174A mutant.
Assay [3] deals with Casein kinase II (Homo sapiens, UniProt P19784+P67870+P68400, V66A). The assay can be described thus: Inhibition of CK2 V66A mutant.

By UniProt entry, the sequences of proteins in these tests, tags left out. Where a name states a change or a piece, a line headed by the entry shows the natural chain unless it says otherwise. Residues count along the entry.
UniProt P19784: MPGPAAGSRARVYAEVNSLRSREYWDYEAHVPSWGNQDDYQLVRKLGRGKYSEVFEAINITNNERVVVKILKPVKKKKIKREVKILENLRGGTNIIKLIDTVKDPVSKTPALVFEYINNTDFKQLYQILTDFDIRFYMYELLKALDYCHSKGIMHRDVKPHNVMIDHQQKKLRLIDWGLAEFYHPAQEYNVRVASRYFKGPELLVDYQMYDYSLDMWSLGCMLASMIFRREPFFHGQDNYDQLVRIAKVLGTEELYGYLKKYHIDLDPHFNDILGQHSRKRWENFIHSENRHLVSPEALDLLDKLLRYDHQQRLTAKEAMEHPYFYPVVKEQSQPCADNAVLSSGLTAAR
UniProt P67870, 2-215 limits assumed: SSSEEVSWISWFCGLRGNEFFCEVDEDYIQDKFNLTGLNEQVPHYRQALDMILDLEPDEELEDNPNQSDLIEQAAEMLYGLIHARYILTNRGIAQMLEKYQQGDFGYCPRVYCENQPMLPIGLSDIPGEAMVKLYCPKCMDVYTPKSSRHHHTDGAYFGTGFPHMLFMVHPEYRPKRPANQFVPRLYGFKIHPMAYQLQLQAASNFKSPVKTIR
UniProt P68400, whole entry, stated change not applied: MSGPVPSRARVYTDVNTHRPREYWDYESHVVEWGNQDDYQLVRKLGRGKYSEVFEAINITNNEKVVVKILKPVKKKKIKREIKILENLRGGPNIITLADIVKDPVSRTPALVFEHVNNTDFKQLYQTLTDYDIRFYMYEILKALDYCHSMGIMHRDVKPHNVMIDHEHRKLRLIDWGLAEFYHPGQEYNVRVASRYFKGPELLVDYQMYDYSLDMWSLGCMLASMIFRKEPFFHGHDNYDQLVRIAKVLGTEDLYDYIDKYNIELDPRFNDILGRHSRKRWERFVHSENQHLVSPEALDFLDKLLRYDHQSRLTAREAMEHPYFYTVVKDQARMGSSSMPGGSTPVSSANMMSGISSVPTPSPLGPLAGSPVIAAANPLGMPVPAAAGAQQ

One may read the IC50 as the midpoint of a concentration-inhibition curve. Higher therefore signals weaker potency. With `CN(C)c1nc2c(Br)c(Br)c(Br)c(Br)c2[nH]1`, the IC50 amounted to 3.3 µM in assay [1], 5.79 µM in assay [2] and 1780 nM in assay [3].

The record behind these values is ChEMBL document CHEMBL1149250, “Optimization of protein kinase CK2 inhibitors derived from 4,5,6,7-tetrabromobenzimidazole” (J Med Chem, 2004).
